Measured values published in EP3860599B1, “(+)-ALPHA-DIHYDROTETRABENAZINE DOSAGE REGIMEN FOR TREATING MOVEMENT DISORDERS” (Adeptio Pharmaceuticals Limited, priority 2018, dated 2020).

Protein sequences, listed by entry. Tags and fused reporters are not part of them.
UniProt Q05940, whole entry: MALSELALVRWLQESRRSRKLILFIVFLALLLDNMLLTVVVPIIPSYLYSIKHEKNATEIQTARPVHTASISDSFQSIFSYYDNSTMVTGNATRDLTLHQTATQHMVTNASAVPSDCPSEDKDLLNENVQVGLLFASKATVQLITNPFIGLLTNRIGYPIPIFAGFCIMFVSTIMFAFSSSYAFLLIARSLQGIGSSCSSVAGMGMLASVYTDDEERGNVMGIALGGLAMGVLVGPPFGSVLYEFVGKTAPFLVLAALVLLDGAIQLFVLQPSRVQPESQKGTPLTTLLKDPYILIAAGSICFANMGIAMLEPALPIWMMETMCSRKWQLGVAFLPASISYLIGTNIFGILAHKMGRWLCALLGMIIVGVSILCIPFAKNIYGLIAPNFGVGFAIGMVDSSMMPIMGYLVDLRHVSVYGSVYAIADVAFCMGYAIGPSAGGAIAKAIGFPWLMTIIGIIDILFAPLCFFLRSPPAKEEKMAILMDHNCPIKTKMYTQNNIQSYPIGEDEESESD
UniProt Q01827, whole entry: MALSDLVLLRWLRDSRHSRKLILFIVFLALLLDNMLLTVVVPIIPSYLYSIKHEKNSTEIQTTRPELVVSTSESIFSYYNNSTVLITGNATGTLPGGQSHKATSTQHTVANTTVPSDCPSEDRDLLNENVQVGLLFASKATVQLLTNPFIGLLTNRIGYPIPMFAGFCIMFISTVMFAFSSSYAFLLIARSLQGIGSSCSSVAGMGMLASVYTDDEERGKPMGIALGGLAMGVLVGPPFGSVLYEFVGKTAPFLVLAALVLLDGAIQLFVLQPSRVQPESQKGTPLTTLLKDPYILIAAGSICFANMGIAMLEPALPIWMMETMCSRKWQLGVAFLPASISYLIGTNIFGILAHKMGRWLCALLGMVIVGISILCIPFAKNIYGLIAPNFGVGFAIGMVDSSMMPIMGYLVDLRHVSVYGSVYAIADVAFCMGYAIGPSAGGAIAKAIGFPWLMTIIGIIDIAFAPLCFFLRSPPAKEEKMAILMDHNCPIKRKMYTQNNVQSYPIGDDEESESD

Tests used:
[1] = target: T1, VMAT2 (Homo sapiens, UniProt Q05940); experiment: % VMAT2 blocking by PET scan after oral dosing of human volunteers, Example 1A; assay type: in vivo; conditions: average plasma levels of less than 15 ng/ml during the period of PET scanning
T1 construct: from tissue
From the text: Complete blocking of VMAT2 is considered undesirable as this can lead to unwanted side effects, such as Parkinsonism. […] The levels of VMAT2 blocking can be determined by competitive binding studies using Positron Emission Tomography (PET). By co-administering a radioactive ligand with the compound of interest at various concentrations, the proportion of binding sites occupied can be determined (see for example, Matthews et al., "Positron emission tomography molecular imaging for drug development", Br. J. Clin. Pharmacol., 73:2, 175-186).
(+)-α-Dihydrotetrabenazine in defined amounts was administered by oral dosing (as a solution in apple juice) to six human volunteers. Blood samples were taken at 30, 60, 120 and 180 minutes after drug administration. At 60 minutes after drug administration, PET scans were initiated and these were stopped at 120 minutes after drug administration.
The experiment was carried out at dosages of 7.5 mg, 15 mg and 22.5 mg.

[2] = target: VMAT2 receptor (Rattus norvegicus, UniProt Q01827); conditions: [3H]-tetrabenazine competition, in vitro; cited from earlier work

Row | Molecule | % VMAT2 binding [1] | Ki [2]
1 | COc1cc2c(cc1OC)[C@H]1C[C@@H](O)[C@H](CC(C)C)CN1CC2 [(+)-α-dihydrotetrabenazine, (R,R,R)-3-isobutyl-9,10-dimethyloxy-1,3,4,5,7,11b-hexahydro-2H-pyrido[2,1-a]isoquinolin-2-ol] | at least 50% | –
2 | (-)-α-dihydrotetrabenazine | – | 2200 nM
